From FireProtDB (doi:10.1016/s0022-2836(02)01221-4)

B1: Alpha-1-antitrypsin, P01009 (parent)
chain: MPSSVSWGILLLAGLCCLVPVSLAEDPQGDAAQKTDTSHHDQDHPTFNKITPNLAEFAFSLYRQLAHQSNSTNIFFSPVSIATAFAMLSLGTKADTHDEILEGLNFNLTEIPEAQIHEGFQELLRTLNQPDSQLQLTTGNGLFLSEGLKLVDKFLEDVKKLYHSEAFTVNFGDTEEAKKQINDYVEKGTQGKIVDLVKELDRDTVFALVNYIFFKGKWERPFEVKDTEEEDFHVDQVTTVKVPMMKRLGMFNIQHCKKLSSWVLLMKYLGNATAIFFLPDEGKLQHLENELTHDIITKFLENEDRRSASLHLPKLSITGTYDLKSVLGQLGITKVFSNGADLSGVTEEAPLKLSKAVHKAVLTIDEKGTEAAGAMFLEAIPMSIPPEVKFNKPFVFLMIEQNTKSPLFMGKVVNPTQK

Variants of: B1
Conditions: Homo sapiens, pH 7.8, Tris-HCl 50 mM, NaCl 50 mM, reversible: yes, structure 1QLP, whole UniProt chain shown; for Tm / change of melting temperature, mutant - wild type (higher = more stable): Thermal, CD; for denaturant midpoint (higher = more stable): 25 °C, Urea, Fluorescence, transition: 3

| Variant | Tm [°C] | change of melting temperature, mutant - wild type (higher = more stable) [°C] | denaturant midpoint (higher = more stable) |
| --- | --- | --- | --- |
| MPSSVSWGILLLAGLCCLVPVSLAEDPQGDAAQKTDTSHHDQDHPTFNKITPNLAEFAFSLYRQLAHQSNSTNIFFSPVSIATAFAMLSLGTKADTHDEILEGLNFNLTEIPEAQIHEGFQELLRTLNQPDSQLQLTTGNGLFLSEGLKLVDKFLEDVKKLYHSEAFTVNFGDTEEAKKQINDYVEKGTQGKIVDLVKELDRDTVFALVNYIFFKGKWERPFEVKDTEEEDFHVDQVTTVKVPMMKRLGMFNIQHCKKLSSWVLLMKYLGNATAIFFLPDEGKLQHLENELTHDIITKFLENEDRRSASLHLPKLSITGTYDLKSVLGQLGITKVFSNGADLSGVTEEAPLKLRKAVHKAVLTIDEKGTEAAGAMFLEAIPMSIPPEVKFNKPFVFLMIEQNTKSPLFMGKVVNPTQK [S354R] | 52 | -4 | – |
| MPSSVSWGILLLAGLCCLVPVSLAEDPQGDAAQKTDTSHHDQDHPTFNKITPNLAEFAFSLYRQLAHQSNSTNIFFSPVSIATAFAMLSLGTKADTHDEILEGLNFNLTEIPEAQIHEGFQELLRTLNQPDSQLQLTTGNGLFLSEGLKLVDKFLEDVKKLYHSEAFTVNFGDTEEAKKQINDYVEKGTQGKIVDLVKELDRDTVFALVNYIFFKGKWERPFEVKDTEEEDFHVDQVTTVKVPMMKRLGMFNIQHCKKLSSWVLLMKYLGNATAIFFLPDEGKLQHLENELTHDIITKFLENEDRRSASLHLPKLSITGTYDLKSVLGQLGITKVFSNGADLSGVTEEAPLKLSIAVHKAVLTIDEKGTEAAGAMFLEAIPMSIPPEVKFNKPFVFLMIEQNTKSPLFMGKVVNPTQK [K355I] | 61 | 3 | 2.76 M and 5.46 M |
| MPSSVSWGILLLAGLCCLVPVSLAEDPQGDAAQKTDTSHHDQDHPTFNKITPNLAEFAFSLYRQLAHQSNSTNIFFSPVSIATAFAMLSLGTKADTHDEILEGLNFNLTEIPEAQIHEGFQELLRTLNQPDSQLQLTTGNGLFLSEGLKLVDKFLEDVKKLYHSEAFTVNFGDTEEAKKQINDYVEKGTQGKIVDLVKELDRDTVFALVNYIFFKGKWERPFEVKDTEEEDFHVDQVTTVKVPMMKRLGMFNIQHCKKLSSWVLLMKYLGNATAIFFLPDEGKLQHLENELTHDIITKFLENEDRRSASLHLPKLSITGTYDLKSVLGQLGITKVFSNGADLSGVTEEAPLKLSTAVHKAVLTIDEKGTEAAGAMFLEAIPMSIPPEVKFNKPFVFLMIEQNTKSPLFMGKVVNPTQK [K355T] | 57 | -1 | 5.32 M |
| MPSSVSWGILLLAGLCCLVPVSLAEDPQGDAAQKTDTSHHDQDHPTFNKITPNLAEFAFSLYRQLAHQSNSTNIFFSPVSIATAFAMLSLGTKADTHDEILEGLNFNLTEIPEAQIHEGFQELLRTLNQPDSQLQLTTGNGLFLSEGLKLVDKFLEDVKKLYHSEAFTVNFGDTEEAKKQINDYVEKGTQGKIVDLVKELDRDTVFALVNYIFFKGKWERPFEVKDTEEEDFHVDQVTTVKVPMMKRLGMFNIQHCKKLSSWVLLMKYLGNATAIFFLPDEGKLQHLENELTHDIITKFLENEDRRSASLHLPKLSITGTYDLKSVLGQLGITKVFSNGADLSGVTEEAPLKLSVAVHKAVLTIDEKGTEAAGAMFLEAIPMSIPPEVKFNKPFVFLMIEQNTKSPLFMGKVVNPTQK [K355V] | 62 | 4 | 2.7 M and 5.8 M |
| MPSSVSWGILLLAGLCCLVPVSLAEDPQGDAAQKTDTSHHDQDHPTFNKITPNLAEFAFSLYRQLAHQSNSTNIFFSPVSIATAFAMLSLGTKADTHDEILEGLNFNLTEIPEAQIHEGFQELLRTLNQPDSQLQLTTGNGLFLSEGLKLVDKFLEDVKKLYHSEAFTVNFGDTEEAKKQINDYVEKGTQGKIVDLVKELDRDTVFALVNYIFFKGKWERPFEVKDTEEEDFHVDQVTTVKVPMMKRLGMFNIQHCKKLSSWVLLMKYLGNATAIFFLPDEGKLQHLENELTHDIITKFLENEDRRSASLHLPKLSITGTYDLKSVLGQLGITKVFSNGADLSGVTEEAPLKLSFAVHKAVLTIDEKGTEAAGAMFLEAIPMSIPPEVKFNKPFVFLMIEQNTKSPLFMGKVVNPTQK [K355F] | 64 | 6 | 3.04 M |

Values joined by “and” are separate entries in the source; they are usually repeats but may differ in a detail not shown here. Equal entries are not always repeated.
